The assay addresses acetylcholinesterase (Homo sapiens, UniProt P22303). Nature of the assay: Inhibition of acetylcholinesterase activity (method of Ellman et al.). The assay is classed as biochemical.

Amino acid sequences for entries named in this document (tags omitted). Residues count along the entry.
UniProt P22303, 32-614: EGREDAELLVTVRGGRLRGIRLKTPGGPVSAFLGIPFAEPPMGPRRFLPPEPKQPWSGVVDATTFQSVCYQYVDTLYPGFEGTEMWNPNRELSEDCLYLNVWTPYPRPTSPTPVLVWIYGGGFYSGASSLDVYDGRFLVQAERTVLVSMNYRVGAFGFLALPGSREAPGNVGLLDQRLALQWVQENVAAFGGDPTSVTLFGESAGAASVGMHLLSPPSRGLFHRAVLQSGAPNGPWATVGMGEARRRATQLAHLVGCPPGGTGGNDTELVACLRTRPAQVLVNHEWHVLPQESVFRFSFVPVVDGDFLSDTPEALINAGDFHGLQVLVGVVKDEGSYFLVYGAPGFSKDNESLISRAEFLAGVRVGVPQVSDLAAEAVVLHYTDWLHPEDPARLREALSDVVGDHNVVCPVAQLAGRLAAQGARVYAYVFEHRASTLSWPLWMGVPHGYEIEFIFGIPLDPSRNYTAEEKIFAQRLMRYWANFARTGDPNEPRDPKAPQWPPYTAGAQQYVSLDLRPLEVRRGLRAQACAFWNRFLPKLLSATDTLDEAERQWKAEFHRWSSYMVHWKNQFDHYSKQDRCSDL

pIC50: −log10 of the molar value.

What is called pIC50 is the negative decadic logarithm of the IC50, by convention in mol/L. The low end stands for a high IC50, the high end for a low IC50. `O=[N+]([O-])C=C(NCCC1CCN(Cc2ccccc2)CC1)Nc1ccccc1` [Compound 4, N-Phenyl-N'-[2-(1-benzyl-4-piperidyl)ethyl]-1,1-diamino-2-nitroethylene] showed a negative-log IC50 (pIC50) of 7.10.

With `COc1ccc(NC(=S)NCCC2CCN(Cc3ccccc3)CC2)cc1` [Compound 9], the pIC50 is 6.82.

The record behind these values is US5364864A, “1,4-disubstituted piperidines, their preparation and their application in therapy” (priority 1991, dated 1994).
